# Measured values reported in US20090214565A1 (BAYLOR RESEARCH INSTITUTE, published 2009).
# How the values were obtained:
# [1] = biological target: T1, IFN-α B2 (human, UniProt P32881 24-189); assay: cell-based or functional assay
# [2] = biological target: T1, IFN-α B2; assay: cell-based or functional assay; remark: listed apart in the source
binder,measurement,setting,value
"ACO-1 (antibody, V domains shown, also called ACO-1 monoclonal antibody; hybridoma ATCC PTA-6557) VH: QVQLQQPGAELVKPGASVKLSCKASGYTFTNYWMHWVKQRPGQGLEWIGEINPSHGRTIYNENFKSKATLTVDKSSITAFMQLSSLTSEDSAVYFCARGGLGPAWFAYWGQGTLVTVSA VL: QIVLTQSPAIMSASPGEKVTLTCSAGSSVDSSYLYWYQQKPGSSPKLWIYSTSNLASGVPARFSGSGSGTSYSLTISSMEAEDAASYFCHQWSSYPFTFGSGTKLEIKR","EC50 of neutralization, RG bioassay",[1],8.09 ng/mL
same,"percentage neutralization, CPE assay",[2],98.8%
